# Measured values as given in ChEMBL document CHEMBL3632544, “Acyl dihydropyrazolo[1,5-a]pyrimidinones as metabotropic glutamate receptor 5 positive allosteric modulators” (Bioorg Med Chem Lett, 2015).
# The chains behind the UniProt entries cited, without tags or fusion partners.
# UniProt P41594, whole entry, looked up: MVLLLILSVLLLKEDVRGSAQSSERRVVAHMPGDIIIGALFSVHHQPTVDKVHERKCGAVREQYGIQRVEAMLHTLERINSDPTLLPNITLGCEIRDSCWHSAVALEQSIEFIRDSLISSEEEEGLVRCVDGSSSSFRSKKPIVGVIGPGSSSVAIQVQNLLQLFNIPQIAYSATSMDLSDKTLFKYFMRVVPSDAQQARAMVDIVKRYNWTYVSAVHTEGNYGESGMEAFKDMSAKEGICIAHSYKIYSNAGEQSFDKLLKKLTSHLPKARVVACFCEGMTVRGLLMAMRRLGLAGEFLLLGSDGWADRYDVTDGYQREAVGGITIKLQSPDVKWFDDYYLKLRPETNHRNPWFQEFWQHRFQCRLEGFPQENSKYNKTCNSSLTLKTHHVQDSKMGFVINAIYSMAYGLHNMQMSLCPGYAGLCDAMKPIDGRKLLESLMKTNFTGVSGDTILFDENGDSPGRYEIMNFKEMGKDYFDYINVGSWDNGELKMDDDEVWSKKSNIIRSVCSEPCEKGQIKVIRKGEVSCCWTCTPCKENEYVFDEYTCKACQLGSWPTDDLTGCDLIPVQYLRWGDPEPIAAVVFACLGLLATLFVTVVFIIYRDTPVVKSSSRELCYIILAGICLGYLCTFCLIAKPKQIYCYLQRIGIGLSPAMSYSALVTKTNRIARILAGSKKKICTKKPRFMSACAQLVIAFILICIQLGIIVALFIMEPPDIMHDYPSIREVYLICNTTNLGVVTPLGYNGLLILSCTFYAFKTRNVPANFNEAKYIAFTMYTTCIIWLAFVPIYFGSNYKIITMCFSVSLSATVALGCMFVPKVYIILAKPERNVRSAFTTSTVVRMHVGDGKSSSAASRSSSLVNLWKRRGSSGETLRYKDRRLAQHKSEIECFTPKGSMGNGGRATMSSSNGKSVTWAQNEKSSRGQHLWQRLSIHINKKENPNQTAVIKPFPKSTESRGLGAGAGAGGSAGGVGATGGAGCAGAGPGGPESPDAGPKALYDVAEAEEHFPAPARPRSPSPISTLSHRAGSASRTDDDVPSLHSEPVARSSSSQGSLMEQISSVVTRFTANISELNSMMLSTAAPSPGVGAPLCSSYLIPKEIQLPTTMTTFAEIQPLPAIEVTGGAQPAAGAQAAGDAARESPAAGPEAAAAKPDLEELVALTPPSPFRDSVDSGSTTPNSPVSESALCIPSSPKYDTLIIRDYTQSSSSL
# UniProt P31424, whole entry, looked up: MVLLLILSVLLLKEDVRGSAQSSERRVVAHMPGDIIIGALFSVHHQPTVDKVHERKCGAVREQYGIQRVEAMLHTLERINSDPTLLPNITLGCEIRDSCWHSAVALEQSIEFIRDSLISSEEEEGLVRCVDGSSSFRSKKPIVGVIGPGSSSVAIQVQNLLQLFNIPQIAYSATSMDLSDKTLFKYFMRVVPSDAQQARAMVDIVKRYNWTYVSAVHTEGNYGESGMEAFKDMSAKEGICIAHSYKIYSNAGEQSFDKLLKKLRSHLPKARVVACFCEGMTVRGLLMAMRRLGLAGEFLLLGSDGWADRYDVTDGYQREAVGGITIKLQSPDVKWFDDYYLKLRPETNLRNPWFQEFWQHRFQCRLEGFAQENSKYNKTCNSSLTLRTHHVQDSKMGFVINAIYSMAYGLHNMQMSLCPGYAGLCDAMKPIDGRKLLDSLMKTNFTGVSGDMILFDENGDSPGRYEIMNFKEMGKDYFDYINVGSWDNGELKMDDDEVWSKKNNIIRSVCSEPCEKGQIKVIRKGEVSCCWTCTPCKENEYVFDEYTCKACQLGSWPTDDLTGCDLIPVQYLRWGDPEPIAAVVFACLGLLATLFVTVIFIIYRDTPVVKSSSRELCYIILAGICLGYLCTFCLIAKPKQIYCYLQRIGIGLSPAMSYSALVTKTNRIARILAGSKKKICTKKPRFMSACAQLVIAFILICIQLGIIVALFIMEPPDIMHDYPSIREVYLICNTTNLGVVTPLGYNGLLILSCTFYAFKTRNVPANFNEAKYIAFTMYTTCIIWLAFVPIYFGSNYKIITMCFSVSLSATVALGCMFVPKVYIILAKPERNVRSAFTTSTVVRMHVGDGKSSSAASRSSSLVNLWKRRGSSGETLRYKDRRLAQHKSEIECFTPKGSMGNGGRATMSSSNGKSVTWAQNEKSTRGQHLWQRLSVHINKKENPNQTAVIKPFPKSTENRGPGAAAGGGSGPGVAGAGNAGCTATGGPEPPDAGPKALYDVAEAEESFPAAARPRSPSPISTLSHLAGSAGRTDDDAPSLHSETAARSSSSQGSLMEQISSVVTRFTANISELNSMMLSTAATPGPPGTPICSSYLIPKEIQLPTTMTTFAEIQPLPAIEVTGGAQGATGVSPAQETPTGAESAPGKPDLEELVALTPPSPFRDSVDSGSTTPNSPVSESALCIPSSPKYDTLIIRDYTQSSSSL
# Experiments:
# [1] = target: Metabotropic glutamate receptor 5 (Homo sapiens, UniProt P41594); assay: Positive allosteric modulation of human mGlu5 expressed in HEK293 cells assessed as maximal calcium mobilization response at 10 uM relative to control; type: functional, cell-based
# [2] = target: Metabotropic glutamate receptor 5 (Rattus norvegicus) (UniProt P31424); assay: Positive allosteric modulation of rat mGlu5 assessed as maximal calcium mobilization response at 10 uM by cell-based assay relative to control; type: functional
structure (smiles),measurement,setting,value
CC(=O)N1CCCn2nc(COc3ccccc3)cc21,fold change (FC),[1],5
same,fold change (FC),[2],4.2
